Assays:
[1] = Ionization constant (pKa)
[2] = Partition coefficient (logD7.6); conditions: octanol/water, pH 7.6

| SMILES | pKa [1] | logD [2] |
| --- | --- | --- |
| C=C(C)CC(OC[n+]1ccn(C)c1/C=N/O)C(=C)C.[Cl-] (stereo not given) | 7.91 | -0.62 |
| C#CCCCC[n+]1cn(C)c(/C=N/O)n1.[Cl-] | 7.34 | -1.56 |
| C#CCC(C)OC[n+]1ccn(C)c1/C=N/O.[Cl-] (stereo not given) | 8.03 | -2.1 |
| CC(C)=CCOC[n+]1ccn(C)c1/C=N/O.[Cl-] | 8.04 | -1.4 |
| CCCC(OC[n+]1ccn(C)c1/C=N/O)c1ccccc1.[Cl-] (stereo not given) | 8.03 | -0.13 |
| C#CCC(CCC)OC[n+]1ccn(C)c1/C=N/O.[Cl-] (stereo not given) | 7.92 | -1.17 |
| C=C=CCOC[n+]1ccn(C)c1/C=N/O.[Cl-] | 8.03 |  |
| Cn1cc[n+](COC(c2ccccc2)C2CCCC2)c1/C=N/O.[Cl-] (stereo not given) | 8.03 | 0.38 |
| CC#CC(C)(C)OC[n+]1ccn(C)c1/C=N/O.[Cl-] | 7.96 | -1.36 |
| C#CCCCC[n+]1ccccc1/C=N/O.[Cl-] | 7.93 | -1.94 |
| Cn1cc[n+](COCc2cccc3c2CCCC3)c1/C=N/O.[Cl-] | 8.13 | 0.07 |
| C#CC(C)OC[n+]1ccn(C)c1/C=N/O.[Cl-] (stereo not given) | 7.96 | -2.14 |
| CC/C=C/CCOC[n+]1ccn(C)c1/C=N/O.[Cl-] | 7.99 | -0.76 |
| CCC/C=C/COC[n+]1ccn(C)c1/C=N/O.[Cl-] | 8 | -0.7 |
| C#CC1CCCCC1OC[n+]1ccn(C)c1/C=N/O.[Cl-] (stereo not given) | 8.03 | -1.7 |
| C#CCCCC[n+]1ccn(C)c1/C=N/O.[Cl-] | 8.18 | -2.02 |
| C#CCCCC[n+]1ccn(COC)c1/C=N/O.[Cl-] | 8.23 | -1.71 |
| C=CCCOC[n+]1ccn(C)c1/C=N/O.[Cl-] | 7.97 | -1.84 |
| C=CCOC[n+]1ccn(C)c1/C=N/O.[Cl-] | 8.04 | -2.5 |
| C#CCCCC[n+]1ccc(/C=N/O)cc1.[Cl-] | 8.36 | -2.32 |
| Cn1cc[n+](COCCCCc2ccccc2)c1/C=N/O.[Cl-] | 8.05 | -0.04 |
| Cn1cc[n+](COCc2ccc(C(F)(F)F)cc2)c1/C=N/O.[Cl-] | 8.06 | -0.18 |

| SMILES | pKa [1] | logD [2] |
| --- | --- | --- |
| CCC(C#Cc1ccccc1)OC[n+]1ccn(C)c1/C=N/O.[Cl-] (stereo not given) | 8.06 | 0.31 |
| Cn1cc[n+](COCc2ccc(F)cc2)c1/C=N/O.[Cl-] | 7.98 | -1.12 |
| C#CC(C)C(C)OC[n+]1ccn(C)c1/C=N/O.[Cl-] (stereo not given) | 8 | -1.55 |
| C/C=C\COC[n+]1ccn(C)c1/C=N/O.[Cl-] | 8.04 | -1.93 |
| C#CCCOC[n+]1ccn(C)c1/C=N/O.[Cl-] | 7.99 | -2.36 |
| C=C(C)COC[n+]1ccn(C)c1/C=N/O.[Cl-] | 7.99 | -1.83 |
| C/C=C/COC[n+]1ccn(C)c1/C=N/O.[Cl-] | 8.07 | -1.54 |
| C#CCCOC[n+]1ccn(C(C)(C)C)c1/C=N/O.[Cl-] | 7.84 | -1.84 |
| C#CCC(OC[n+]1ccn(C)c1/C=N/O)c1ccccc1.[Cl-] (stereo not given) | 7.99 | -1.05 |
| C#CC(CCC)OC[n+]1ccn(C)c1/C=N/O.[Cl-] (stereo not given) | 8.02 | -1.1 |
| C=CC(CCC)OC[n+]1ccn(C)c1/C=N/O.[Cl-] (stereo not given) | 7.99 | -0.87 |
| CCC(CC#Cc1ccccc1)OC[n+]1ccn(C)c1/C=N/O.[Cl-] (stereo not given) | 8.07 | 0.21 |
| C#CCCCC[n+]1ccn(C(C)(C)C)c1/C=N/O.[Cl-] | 8.06 | -1.42 |
| C=CC(C)(C)OC[n+]1ccn(C)c1/C=N/O.[Cl-] | 7.94 | -1.54 |
| C#CC(CC)OC[n+]1ccn(C)c1/C=N/O.[Cl-] (stereo not given) | 7.99 | -1.49 |
| C=C(C)CCOC[n+]1ccn(C)c1/C=N/O.[Cl-] | 8.03 | -1.41 |
| CC(C#Cc1ccccc1)COC[n+]1ccn(C)c1/C=N/O.[Cl-] (stereo not given) | 7.99 | -0.05 |
| C#CCCOC[n+]1ccc(/C=N/O)cc1.[Cl-] | 8.18 | -2.72 |
| Cn1cc[n+](COC/C=C/C(C)(C)C)c1/C=N/O.[Cl-] | 8.04 | -0.47 |
| Cn1cc[n+](COC/C=C/c2ccccc2)c1/C=N/O.[Cl-] | 8.01 | -0.55 |
| CC#CC(C)OC[n+]1ccn(C)c1/C=N/O.[Cl-] (stereo not given) | 8.03 | -1.74 |

— ChEMBL document CHEMBL1124682, “Quaternary salts of 2-[(hydroxyimino)methyl]imidazole. 3. Synthesis and evaluation of (alkenyloxy)-, (alkynyloxy)-, and (aralkyloxy)methyl quaternarized 2-[(hydroxyimino)methyl]-1-alkylimidazolium halides as reactivators and therapy for soman intoxication” (1989)
